AlphaSeq binding of Ab-14 heavy chain variants to a spike HR2 peptide

Antigen: PDVDLGDISGINAS, a 14-residue peptide of the SARS-CoV-2 spike HR2 region.

Parent: Ab-14, a human scFv built as VH, a (GGGGS)3 linker, VL. Only the CDRs of the heavy chain vary.
VH: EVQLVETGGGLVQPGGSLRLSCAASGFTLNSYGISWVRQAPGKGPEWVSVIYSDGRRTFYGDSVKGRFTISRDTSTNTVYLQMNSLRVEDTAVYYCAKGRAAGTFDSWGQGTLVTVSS
VL: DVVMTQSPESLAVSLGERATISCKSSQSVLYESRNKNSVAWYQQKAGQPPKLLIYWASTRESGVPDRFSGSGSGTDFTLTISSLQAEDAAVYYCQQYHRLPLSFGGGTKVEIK

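Phage display of a naive human antibody library on the peptide gave the parent. AAYL49 was designed without a model: most single CDR substitutions and a random sample of double and triple ones. AlphaSeq pools MATa yeast showing the antibodies with MATalpha yeast showing the peptide. After mating in shaken culture at 30 °C for 16 h, diploids were selected and their barcode pairs sequenced. The ratio of observed to expected reads was calibrated, replicate by replicate, on BCL2-family standards whose Kd was known from biolayer interferometry. Each pool was mated in three replicate cultures.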

Variants are written as CDR1, CDR2 and CDR3 of the heavy chain (limits as in the source). Parent: GFTLNSYGIS, VIYSDGRRTFYGDSVK, GRAAGTFDS.
Affinities are written as log10 Kd with Kd in nM; a lower number is a better binder.
"nd" marks a missing value. The strain was present, yet no cells mated with the target were sequenced in that replicate, which points to weak or no binding.
Empty control strains, which show no peptide, gave a signal in 15% of pairings with library AAYL49; the median was 4.06 and 95% of these signals were weaker than 2.83. No background was subtracted. Also given: how often the same scFv was detected with the empty control strains, with their mean in brackets.
For reference, the parent read 0.65 as the reference entry and 4.11 (one replicate of three) as a member of this library.

CDR-H1 | CDR-H2 | CDR-H3 | replicates, log10 nM | control signals
GFTLNSYGIS | VIYSDGYRTFPGDSVK | GRAAGQFDS | nd / nd / nd | 1 of 9 (2.67)
GFTLCSYGIS | VIYSDGRRTFYQDSVK | CRAAGTFDS | 1.65 / 2.49 / 2.37 | 0 of 9
GFTLWSYGNS | VIYSDGRRTFYRDSVK | GRAAGTFDS | nd / nd / nd | 0 of 9
GFTLNSYGDS | VIYSDGRRTFPGDSVR | GRAAGTFDS | 5.09 / nd / nd | 2 of 9 (3.91)
GFTLNSYGII | VIYSDGRRTFYHDSQK | GRAAGTFDS | 4.95 / 4.77 / nd | 5 of 9 (4.97)
GFTLNSYGIS | VKYSVGRRTFNGDSVK | GRAAGTFDS | 4.69 / 5.12 / nd | 2 of 9 (4.44)
GFTLSSYGIS | VIYSDGRRTFYGDSGK | GRAAGTPDS | nd / nd / nd | 3 of 9 (4.04)
GFTLNSYRIS | VEYSDGRRTFYGDSVK | GMAAGTFDS | 2.73 / nd / 4.32 | 1 of 9 (4.03)
GFTLNSYGIS | VIRSDGRRTFYGDSVK | GRAATTFDA | nd / nd / nd | 0 of 9
GFTYNSYGIS | VIYSDGRRTFYGVSVK | GRAAGTFDM | 6.53 / 3.84 / 4.74 | 6 of 9 (4.57)
GFTLNCYGIS | VIYSDGRRTFYGDSVK | GRAAKTFDS | nd / 4.75 / 4.22 | 1 of 9 (4.18)
GFTLNSYGIS | VIYSDARRTFYGDSKP | GRAAGTFDS | nd / nd / nd | 0 of 9
GFTLTSYGIS | VIYSDGRRHFYGDSVK | GRAAGWFDS | nd / nd / 2.04 | 1 of 9 (3.34)
GFTLNSAGIS | VIYKDGRRTFYGDSVA | GRAAGTFDS | nd / nd / nd | 1 of 9 (4.31)
GFTLNIYGIS | VIYSDGRRTFYFDSVK | GRAAGKFDS | nd / nd / nd | 0 of 9
GFTLNSYMIS | RIYSNGRRTFYGDSVK | GRAAGTFDS | nd / nd / nd | 0 of 9
GYTLNSYGIS | VIYSDGRRTPYGDSVK | GRATGTFDS | nd / nd / 4.66 | 2 of 9 (3.38)
GFTLNSYGYS | VIYSDGRREFYGDSVR | GRAAGTFDS | 4.88 / 4.04 / nd | 5 of 9 (4.76)
GFTLNSYCIS | VIYSDGRRTFYGDVVK | GHAAGTFDS | nd / nd / nd | 0 of 9
SFTLNSYGIS | VIVSDGRRTFYGDSVK | NRAAGTFDS | 5.73 / 4.56 / nd | 7 of 9 (4.45)
PFTLNSYGIS | VIYSDGRRTFYGDSVK | SRAAGTFDS | 3.76 / nd / nd | 5 of 9 (4.22)
GFTLNSYGIS | VIYSDGRRTTYGDSVK | GRAAGWFDG | 3.23 / 2.79 / 3.28 | 1 of 9 (3.88)
GFTLNFYGIS | VIYSDGRRTFYGDSVL | GRAIGTFDS | nd / nd / 5.17 | 3 of 9 (4.63)
GFTLNSYMIS | VNYSDGRRTFYGDSVK | YRAAGTFDS | nd / nd / nd | 0 of 9
GFTLNSYGIS | VIYSDGRRTFGGDSVK | PRAAGTFDS | nd / nd / nd | 0 of 9
GFTLNLYGIS | VIYSYGRPTFYGDSVK | GRAAGTFDS | nd / 2.34 / 4.48 | 0 of 9
GFRSNSYGIS | VIYSDGRRQFYGDSVK | GRAAGTFDS | nd / nd / nd | 0 of 9
GFTLNSYGIS | VIYSDPRRTFYGDSVK | NRAAGTTDS | 3.47 / 4.35 / 5.79 | 3 of 9 (3.77)
GFTLNSYGIP | VFYSDGRRTFYGDAVK | GRAAGTFDS | nd / nd / nd | 0 of 9
GFTLNSCGIS | VIYSDGRRTFYGDMVK | HRAAGTFDS | nd / nd / nd | 1 of 9 (3.76)
GFTLNGYGIS | EIYSDGRRTFYGDSVK | GRAAGTMDS | nd / nd / nd | 4 of 9 (4.22)
NFTLNSYGIG | VIYSDGRRTFYGCSVK | GRAAGTFDS | nd / nd / nd | 3 of 9 (3.55)
GFTLNSYGGS | VIYSDGRRRFYGDSLK | GRAAGTFDS | 4.35 / 3.50 / nd | 0 of 9
GFTLNSYGIS | YIVSDGRRTFYGDSVK | GKAAGTFDS | nd / nd / nd | 0 of 9
GFTLNEYGIS | VHYSDGRRTFYGDSHK | GRAAGTFDS | nd / nd / nd | 2 of 9 (3.96)
GFTLNSYGIS | VIYSYYGRTFYGDSVK | GRAAGTFDS | nd / nd / 3.16 | 0 of 9
GFTLNSPGIV | VIYSDGRRTFYGDSVK | GRAAGTYDS | nd / nd / nd | 1 of 9 (3.81)
GFTLNSYGIW | VIYSDGIRTFYGDSVK | GRGAGTFDS | nd / nd / nd | 0 of 9
GFTLQSYGFS | VIYSDGRRTFYGDSVK | GRAAMTFDS | nd / nd / nd | 1 of 9 (2.99)
GFTLNSYGIS | VIYSDGRRTFPGDSVK | GHAAGTFYS | nd / 5.05 / 5.00 | 1 of 9 (4.99)
GFYLNSYGIS | VIYSDGRRTFYGDSVK | GRGAGTFCS | 1.86 / 1.97 / 1.84 | 1 of 9 (4.19)
GFTLNANGIS | VIYSDGRRFFYGDSVK | GRAAGTFDS | nd / nd / nd | 0 of 9
GFTLNSNGIS | VIYSDGNNTFYGDSVK | GRAAGTFDS | nd / nd / nd | 1 of 9 (5.69)

Picked from the list: the 5 lowest averages where every replicate gave a value.

CDR-H1,CDR-H2,CDR-H3,"replicates, log10 nM",control signals
GFYLNSYGIS,VIYSDGRRTFYGDSVK,GRGAGTFCS,1.86 / 1.97 / 1.84,1 of 9 (4.19)
GFTLCSYGIS,VIYSDGRRTFYQDSVK,CRAAGTFDS,1.65 / 2.49 / 2.37,0 of 9
GFTLNSYGIS,VIYSDGRRTTYGDSVK,GRAAGWFDG,3.23 / 2.79 / 3.28,1 of 9 (3.88)
GFTLNSYGIS,VIYSDPRRTFYGDSVK,NRAAGTTDS,3.47 / 4.35 / 5.79,3 of 9 (3.77)
GFTYNSYGIS,VIYSDGRRTFYGVSVK,GRAAGTFDM,6.53 / 3.84 / 4.74,6 of 9 (4.57)

Source: Engelhart et al. 2022 (doi:10.1038/s41597-022-01779-4), MIT Lincoln Laboratory and A-Alpha Bio; data file from the FLAb repository.